The target in this experiment is T1, mouse PD-1-Ig (extracellular domain of mouse PD-1 linked to the Fc portion of mouse IgG2a) (mouse, UniProt Q02242 25-169).
T1 construct: also called mPD-1; not shown: Fc portion of mouse IgG2a
T1 sequence: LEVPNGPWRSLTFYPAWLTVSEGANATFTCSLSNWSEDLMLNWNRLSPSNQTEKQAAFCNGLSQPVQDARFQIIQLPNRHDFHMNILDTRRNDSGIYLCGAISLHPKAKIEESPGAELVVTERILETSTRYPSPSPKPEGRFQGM
Briefly: capture ELISA; PD-1-Ig coated on plate, COS supernatant, anti-human IgG-HRP.

B1: mouse B7-DC-Ig D111S (Fc fusion)
chain: LFTVTAPKEVYTVDVGSSVSLECDFDRRECTELEGIRASLQKVENDTSLQSERATLLEEQLPLGKALFHIPSVQVRDSGQYRCLVICGAAWSYKYLTVKVKASYMRIDTRILEVPGTGEVQLTCQARGYPLAEVSWQNVSVPANTSHIRTPEGLYQVTSVLRLKPQPSRNFSCMFWNAHMKELTSAIIDPLSRMEPKVPRTW
notes: Variant of m1; construct as in its note; also called mB7-DC variant; not shown: CH2-CH3 portion of human IgG1
For B1, the “PD-1 binding ELISA (%)” value is 0.3%.

These data come from US20130017199A1, “SIMULTANEOUS INHIBITION OF PD-L1/PD-L2” (AMPLIMMUNE ,Inc. a corporation, priority 2009, published 2013).
